Data: US3994925A, “Salt of the silymarin group with aminopolyhydroxy alcohols” (Dr. Madaus & Co., priority 1973, dated 1976)

Test system: dogs
Conditions: dog, in vivo, iv

Question: “1-methylamino-glucose salts of the Silymarin group material [SMG1]” was tested. Which dosage tolerance did it give?
Answer: 200 mg/kg
